The values below come from PubChem BioAssay AID2540 (Sanford-Burnham Center for Chemical Genomics, 2010).

The chains behind the UniProt entries cited, without tags or fusion partners. Where a name states a change or a piece, a line headed by the entry shows the natural chain unless it says otherwise.
UniProt Q96LD8: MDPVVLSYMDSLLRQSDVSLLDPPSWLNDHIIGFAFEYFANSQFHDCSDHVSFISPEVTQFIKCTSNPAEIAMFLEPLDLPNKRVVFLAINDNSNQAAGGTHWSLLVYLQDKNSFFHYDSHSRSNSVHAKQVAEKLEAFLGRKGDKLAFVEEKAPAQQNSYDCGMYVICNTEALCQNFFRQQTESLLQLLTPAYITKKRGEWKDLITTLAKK

One may read the inhibition as the drop in the measured response relative to a control, in per cent.

The list shows a part of the results, in another mix than the full data. Active and inactive are the calls of the source. No stated cut-off is given here; in the data, active means inhibition above about 50%; inactive means the rest.

The target of the test is Sentrin-specific protease 8 (Homo sapiens) (UniProt Q96LD8). Put plainly: SENP8 protease inhibitors, primary screen, biochemical, luminescence (AID 2540). The following applies: purified SENP8, Z-RLRGG-aminoluciferin cleavage, at 10 µM, active compounds read high.
In the case of `CCN(N=Nc1nonc1N)c1nonc1N`, the inhibition is inactive: 5.37%.
In the case of `O=[N+]([O-])c1cc([N+](=O)[O-])c(CCN2CCOCC2)c([N+](=O)[O-])c1` it was inactive: 11.3%; in that of `Cc1cc(SC(NC(=O)c2ccc(F)cc2)C(Cl)(Cl)Cl)ncn1` (centres undefined), inactive: -13.8%; in that of `CCOP(=O)(Nc1ccccc1)OCC`, inactive: -3.33%.
Take `Cc1ccc(NP(=O)(Oc2ccccc2F)Oc2ccccc2F)nc1`: the inhibition was inactive: -1.69%.
Take `CN(C(=O)Cc1ccc(Cl)c(Cl)c1)[C@H]1CCCC[C@@H]1N1CCCC1`: the inhibition is inactive: 8.11%.
With `CC(=O)Nc1ccc([As](=O)(O)O)cc1` the figure was inactive: 4.88%; with `O=C(O)c1ccccc1[As](=O)(O)O`, inactive: 9.63%; with `O=P(Nc1nc2ccc(Cl)cc2s1)(c1ccccc1)c1ccccc1`, inactive: -4.69%.
In the case of `Nc1cc(N)c2nonc2c1[N+](=O)[O-]` it was inactive: 4.57%.
In the case of `CC(C)CC(=O)NC(Sc1ccc(Cl)cc1)C(Cl)(Cl)Cl` (centres undefined) it was inactive: 3.02%.
`Oc1ccccc1CNc1ccccn1`: the inhibition is inactive: -4.43%.
Regarding `O=C(NC(Sc1ccncn1)C(Cl)(Cl)Cl)c1ccccc1` (centres undefined), the inhibition was inactive: 1.42%.
With `Cc1c2non([O-])c-2c(C)[n+](=O)[n+]1[O-]` the figure was inactive: 1.98%; with `COc1ccccc1OP(=O)(Nc1ccc(C)cn1)Oc1ccccc1OC`, inactive: -6.39%; with `Cc1ccc(OP(=O)(Nc2nccs2)Oc2ccc(C)cc2)cc1`, inactive: 0.397%.
Turning to `CN1CCCC(OC(=O)C(c2ccccc2)c2ccccc2)C1` (centres undefined), the inhibition is inactive: -2.86%.
With `Clc1ccc(Cl)c(NC2=NCC(CBr)S2)c1` (centres undefined), the inhibition is inactive: 1.48%.
As for `NC(=O)c1cc([N+](=O)[O-])cc([N+](=O)[O-])c1N`, the inhibition is inactive: -7.92%.
As to `CN(C(=O)Cc1ccc(Cl)c(Cl)c1)[C@H]1CCCC[C@H]1N1CCCC1`, the inhibition is inactive: -7.33%.
With `Cc1ccc(N/C(=N/P(=O)(N2CCOCC2)N2CCOCC2)N2CCOCC2)cc1` the figure was inactive: 6.28%.
In the case of `CC(C)=N/N=C(\N)N[N+](=O)[O-]` it was inactive: -4.66%; in that of `CN(C)C(=O)OCCc1n(C)cc[n+]1C`, inactive: -9.37%.
In the case of `CC1CCN(C(=O)Oc2c(Cl)cc(Cl)c3cccnc23)CC1` it was inactive: -4.43%; in that of `Nc1ccc([As](=O)(O)c2ccc(N)cc2)cc1`, inactive: -1.81%; in that of `C[N+]1=C2C=CC=CC=C2SC12C([N+](=O)[O-])=CC([N+](=O)[O-])=C[C-]2[N+](=O)[O-]` (centres undefined), inactive: 5.93%.
Take `CCN(/C(=N/P(=O)(N1CCOCC1)N1CCOCC1)N1CCOCC1)c1ccc(OC)cc1`: the inhibition is inactive: -4.16%.
Consider `O=[N+]([O-])c1cccc2n[nH]nc12`, for which the inhibition is inactive: 4.34%.
In the case of `CC(=O)N1C2C3N(C(C)=O)C1C1N(C(C)=O)C(C(N1C(C)=O)N3C(C)=O)N2C(C)=O`, the inhibition is inactive: -3.93%.
As for `Cc1ccc(NP(=O)(Oc2ccccc2)Oc2ccccc2)nc1`, the inhibition is inactive: -9.06%.
As to `CCc1nc2c(n1)c1c(non1O)c1c2no[n+]1[O-]`, the inhibition was inactive: 1.78%.
Turning to `O=[N+]([O-])c1cc([N+](=O)[O-])c(CCNc2ccccc2)c([N+](=O)[O-])c1`, the inhibition was inactive: 8.67%.
In the case of `COc1ccc(C2=NCC(CBr)S2)cc1` (centres undefined) it was inactive: 0.215%; in that of `O=[N+]([O-])c1cccc(NC2=NCC(CBr)S2)c1` (centres undefined), inactive: 1.65%; in that of `CC(C)(C)C(=O)NC(Sc1ccncn1)C(Cl)(Cl)Cl` (centres undefined), inactive: -8.42%.
In the case of `O=[N+]([O-])c1ncn(CCn2ncnc2[N+](=O)[O-])n1` it was inactive: -6.48%; in that of `O=C(Nc1cc([As](=O)(O)O)ccc1O)c1ccccc1`, inactive: -7.11%; in that of `C(Cc1nn[nH]n1)Cc1nn[nH]n1`, inactive: 3.47%.
In the case of `Nc1ccc([As](=O)(O)c2ccc([N+](=O)[O-])cc2)cc1` it was inactive: -3.93%; in that of `O=C(OC1CN2CCC1CC2)c1cccc(Cl)c1` (centres undefined), inactive: -1.44%; in that of `O=[N+]([O-])c1ncn(CCn2cnc([N+](=O)[O-])n2)n1`, inactive: -0.183%.
As for `O=[As](O)(c1ccccc1)c1ccc(O)cc1`, the inhibition is inactive: -3.8%.
For `O=P(Nc1nc2ccccc2s1)(c1ccccc1)c1ccccc1`, the inhibition was inactive: 0.934%.
As to `C[C@H]1OP(=O)(Oc2ccccc2)[C@H](O)[C@H](O)[C@H]1N=[N+]=[N-]` (some centres undefined), the inhibition is inactive: -9.69%.
In the case of `O=P(Nc1ccccn1)(c1ccc(Br)cc1)c1ccc(Br)cc1` it was inactive: -1.15%; in that of `CN(C)C1(CNC(=O)c2ccc(Cl)c(S(N)(=O)=O)c2)CCCCC1`, inactive: -1.83%; in that of `c1nnnn1CCn1cnnn1`, inactive: -8.78%.
Regarding `CC(C)C(=O)NC(Sc1ccccc1)C(Cl)(Cl)Cl` (centres undefined), the inhibition was inactive: -14.2%.
In the case of `O=P(Nc1nccs1)(c1ccccc1)c1ccccc1` it was inactive: 4.41%.
Regarding `CC(=O)Nc1ccc([As](=O)(O)O)c(O)c1`, the inhibition was inactive: -2.03%.
In the case of `CC(=O)Nc1ccc(Oc2c([N+](=O)[O-])cc([N+](=O)[O-])cc2[N+](=O)[O-])cc1` it was inactive: -4.79%; in that of `CC(=O)c1ccc(N2CC2c2ccncc2)cc1` (centres undefined), inactive: -4.74%; in that of `Cc1ccccc1CN(C)C(=O)COC(=O)C(O)(c1ccccc1)c1ccccc1`, inactive: -9.89%.
With `C[C@H]1OP(=O)(Oc2ccccc2)C[C@@H]2O[C@@H]21` (some centres undefined), the inhibition was inactive: 0.501%.
In the case of `C[C@@H]1C=CCP(=O)(Oc2ccccc2)O1` (some centres undefined) it was inactive: -1.82%; in that of `CC(C)(C)C(=O)NC(Sc1ccccc1)C(Cl)(Cl)Cl` (centres undefined), inactive: -0.875%.
In the case of `O=P1(Nc2nc3ccc(Cl)cc3s2)COc2ccccc2O1` (centres undefined) it was inactive: -10.1%; in that of `CCOc1ccc(C2=NCC(CBr)S2)cc1` (centres undefined), inactive: 0.574%.
In the case of `CC(NC(=O)COC(=O)C(O)(c1ccccc1)c1ccccc1)c1ccccc1` (centres undefined) it was inactive: -4.07%; in that of `Cc1ccccc1OP(=O)(Nc1ccccn1)Oc1ccccc1C`, inactive: -0.625%; in that of `CN(C)C(=O)Oc1noc2ccccc12`, inactive: 8.74%.
Turning to `COC(=O)c1cc2c(s1)N=C(c1ccccc1)N(C)P2(=O)N1CCOCC1` (centres undefined), the inhibition is inactive: -0.61%.
On to `CC(=O)NC(SC(=S)N(CC(C)C)CC(C)C)C(Cl)(Cl)Cl` (centres undefined), for which the inhibition was inactive: -1.11%.
As to `Cc1ccc(OP(=O)(Nc2ccccn2)Oc2ccc(C)cc2)cc1`, the inhibition was inactive: 2.36%.
With `O=C(OC1CN2CCC1CC2)c1ccccc1` (centres undefined), the inhibition is inactive: -7.09%.
In the case of `CCC(=O)N1C2C3N(C(=O)CC)C1C1N(C(=O)CC)C(C(N1C(=O)CC)N3C(=O)CC)N2C(=O)CC` it was inactive: -1.09%; in that of `CCNC(=S)/N=C(\N)N[N+](=O)[O-]`, inactive: 0.007%.
In the case of `O=C(NC1CCS(=O)(=O)C1)NP(=S)(Oc1ccccc1)Oc1ccccc1` (centres undefined) it was inactive: 6.28%; in that of `c1ccc(-c2nn[nH]n2)c(-c2nn[nH]n2)c1`, inactive: -16.1%.
Regarding `Cc1ccc(NP(=O)(Oc2cccc(C)c2)Oc2cccc(C)c2)nc1`, the inhibition is inactive: -9.19%.
`CCOC(=O)NC(Sc1ccccc1)C(Cl)(Cl)Cl` (centres undefined): the inhibition is inactive: 5.48%.
With `O=[N+]([O-])c1ccc2c(c1)nnn2O` the figure was inactive: 3.56%; with `CN(C)C(=O)c1cc([N+](=O)[O-])cc2c1-c1c(cc([N+](=O)[O-])cc1[N+](=O)[O-])C2=O`, inactive: -8.78%.
In the case of `CN(C(=O)Cc1ccc(Cl)c(Cl)c1)[C@H]1CC[C@@]2(CCCO2)C[C@@H]1N1CCCC1` it was inactive: 1.07%.
Take `N#CCCN(C(=O)COC(=O)C(O)(c1ccccc1)c1ccccc1)c1ccc(F)cc1`: the inhibition is inactive: -10.7%.
Consider `CCOP1(=S)c2c(C)nn(CCC#N)c2N=C(c2ccc(F)cc2)N1C` (centres undefined), for which the inhibition is inactive: 4.24%.
In the case of `CN(C(=O)Cc1ccccc1)[C@@H]1CC[C@]2(CCCO2)C[C@H]1N1CCCC1` it was inactive: 5.88%; in that of `NC(=O)Nc1ccc([As](=O)(O)O)cc1`, inactive: 1.7%.
With `Nc1ccccc1[As](=O)(O)c1ccccc1` the figure was inactive: -3.3%.
In the case of `O=C(O)COc1ccc([As](=O)(O)O)cc1[N+](=O)[O-]` it was inactive: -8.09%.
For the compound `CS(=O)(=O)c1cc([N+](=O)[O-])c2no[n+]([O-])c2c1`, the inhibition is inactive: -2.62%.
In the case of `CCOP1(=S)c2c(C)nn(CCC#N)c2N=C(c2ccccc2F)N1C` (centres undefined), the inhibition was inactive: -4.1%.
Turning to `O=P(Nc1nccs1)(Oc1ccccc1)Oc1ccccc1`, the inhibition was inactive: -4.16%.
For the compound `O=P(Nc1nccs1)(c1ccccc1)c1nc2ccccc2s1` (centres undefined), the inhibition was inactive: -0.174%.
With `COc1cc(C2NCCC3(OCCO3)C2(C)C)cc(OC)c1OC` (centres undefined) the figure was inactive: -5.22%; with `CCOP(=O)(Nc1cccc2ccccc12)OCC`, inactive: -4.38%.
With `CCCOP(=S)(Nc1nc(N)cc(=O)[nH]1)OCCC` the figure was inactive: -6.55%; with `Cc1ccc(NCCc2c([N+](=O)[O-])cc([N+](=O)[O-])cc2[N+](=O)[O-])cc1`, inactive: 6.58%.
With `Cc1cccc(OCC(=O)OC2CN3CCC2CC3)c1` (centres undefined) the figure was inactive: -4.95%; with `O=[As](O)(c1cccc(O)c1)c1cccc(O)c1`, inactive: 3.04%; with `O=[As](O)(O)c1cccnc1`, inactive: 3.96%.
For `COc1cc(C(=O)NCC2(N3CCOCC3)CCCCC2)cc(Cl)c1OC(C)C`, the inhibition is inactive: 4.38%.
With `CS(=O)(=O)c1ccc(Cl)c(NC(=O)COC(=O)C(O)(c2ccccc2)c2ccccc2)c1`, the inhibition is inactive: -1.44%.
With `O=C(OC1CN2CCC1CC2)c1ccc(Cl)cc1` (centres undefined) the figure was inactive: -0.278%.
In the case of `O=[As](O)(c1ccccc1Br)c1ccccc1Br` it was inactive: 5.26%; in that of `CC1(CBr)Cn2c(nc3ccccc3c2=O)S1` (centres undefined), inactive: -5.54%; in that of `CC(C)/C=N\N=C(\N)N[N+](=O)[O-]`, inactive: -5.92%.
Consider `CN(C(=O)Cc1ccc(Cl)c(Cl)c1)[C@@H]1CCCC[C@H]1N1CCCC1`, for which the inhibition was inactive: -6.24%.
As to `COc1ccccc1CNC(=O)COC(=O)C(O)(c1ccccc1)c1ccccc1`, the inhibition is inactive: -2.67%.
